The text below walks through data of publication PMC11399425, “Tricyclic and tetracyclic antidepressants upregulate VMAT2 activity and rescue disease-causing VMAT2 variants” (Neuropsychopharmacology, 2024).

Test [1] concerns the target T1, VMAT2 (Mus musculus, UniProt Q8BRU6). The test is described as follows: FFN206 uptake inhibition assay (30-min treatment) in HEK-VMAT2 cells.
Test [2] concerns the target T1, VMAT2. The test is described as follows: FFN206 uptake upregulation assay (18-h treatment, washout) in HEK-VMAT2 cells. The test is classed as cell-based. Also on record: The full-length mouse and human SLC18A2 cDNAs encoding VMAT2 were cloned into pcDNA3.1 vectors; expressed in transfected cells. As to conditions: for Emax concentration: 18 h treatment, concentration giving Emax.

Turning to `Clc1ccc2c(c1)C(N1CCNCC1)=Nc1ccccc1O2` [AMO, Amoxapine], the “Effect on VMAT2 activity, acute” value on VMAT2 [1] (10 μM, 30 min, vs vehicle) is “significantly inhibited VMAT2 activity”. The “Hill Slope (inhibition)” value on VMAT2 [1] (30 min inhibition curve fit) is “–1.002”. For the same molecule, the “Imax, % vehicle (mean ± SEM)” value at VMAT2 [1] (VMAT2 activity at 100 μM compound, 30 min, normalized to vehicle (100%)) was 7.73 ± 1.23 % vehicle. For the same molecule, the “Emax, % vehicle (mean ± SEM)” value at VMAT2 [2] (18 h treatment followed by washout, at Emax concentration) turned out to be 179.83 ± 18.89 % vehicle. This molecule also yielded an Emax concentration at VMAT2 [2] of 31.62 µM. In addition, on VMAT2 [2] (18 h upregulation curve fit), the “Hill slope (upregulation)” value is listed as 4.376.

In turn, `CN(C)CCCN1c2ccccc2CCc2ccccc21` [IMI, Imipramine] came in with an Emax concentration on VMAT2 [2] of 100 µM.
